One experiment addresses human orexin 1 receptor (Homo sapiens, UniProt O43613). Briefly: Human orexin 1 receptor radioligand binding. Conditions: CHO cells stably expressing human orexin 1 receptor; apparent Ki; read-out: hOX1 Ki. How it is done: The in vitro affinity of the compounds of the invention for the rat/human orexin 1 and human orexin 2 receptors was determined by competitive radioligand binding using [^3H](1-(5-(2-fluoro-phenyl)-2-methyl-thiazol-4-yl)-1-((S)-2-(5-phenyl-(1,3,4)oxadiazol-2-ylmethyl)-pyrrolidin-1-yl)-methanone)(Langmead et al., 2004) and [^3H]EMPA (n-ethyl-2[96-methoxy-pyridin-3-yl)-(toluene-2-sulfonyl)-amino]-N-pyridin-3-ylmethyl acetamide), respectively (Langmead et al., 2004, British Journal of Pharmacology 141:340-346; Malherbe et al., 2004, British Journal of Pharmacology 156:1326-41).
Human Embryonic Kidney 293 cells (HEK293) stably expressing rat orexin 1 receptor (Genebank accession number NM_001525) or Chinese ovary cells (CHO) stably expressing human orexin 1 receptor (Genebank accession number NM_001526) were grown to confluency in DMEM (Hyclone, cat #SH30022), 10% FBS, 1× Pen/Strep, 1× sodium pyruvate, 10 mM HEPES, 600 µg/mL G418 and DMEM/F12 (Gibco, Cat #11039), 10% FBS, 1× Pen/Strep, 600 µg/mL G418 media, respectively on 150 cm^2 tissue culture plates, washed with 5 mM EDTA in PBS (HyClone Dulbecco's Phoshpate Buffered Saline 1× with Calcium and Magnesium, Cat #SH30264.01, hereafter referred to simply as PBS) and scraped into 50 ml tubes. After centrifugation (2K×G, 5 min at 4° C.), the supernatant was aspirated and the pellets frozen and stored at −80° C. Cells were resuspended in PBS in the presence of 1 tablet of protease inhibitor cocktail (Roche, Cat. #11836145001) per 50 mL. Each cell pellet from a 15 cm plate was resuspended in 10 mL, stored on ice, and homogenized for 45 sec prior to addition to the reactions. Competition binding experiments in 96 well polypropylene plates were performed using [^3H]-(1-(5-(2-fluoro-phenyl)-2-methyl-thiazol-4-yl)-1-((S)-2-(5-phenyl-(1,3,4)oxadiazol-2-ylmethyl)-pyrrolidin-1-yl)-methanone) (Moraveck Corporation, specific activity=35.3 Ci/mmol), diluted to a 10 nM concentration in PBS (4 nM final). Compounds were solubilized in 100% DMSO (Acros Organics, Cat. #61042-1000) and tested over a range of 7 concentrations (from 0.1 nM to 10 μM). The final concentration of DMSO in the reactions is equal to or less than 0.1%. Total and nonspecific binding was determined in the absence and presence of 10 μM almorexant. The total volume of each reaction is 200 μL (20 μL of diluted compounds, 80 μL of [3H]-(1-(5-(2-fluoro-phenyl)-2-methyl-thiazol-4-yl)-1-((S)-2-(5-phenyl-(1,3,4)oxadiazol-2-ylmethyl)-pyrrolidin-1-yl)-methanone) diluted in PBS and 100 μL of the cell suspension). Reactions were run for 60 min at room temperature and terminated by filtration through GF/C filter plates (PerkinElmer, Cat. #6005174) presoaked in 0.3% polyethylenimine using the cell harvester (PerkinElmer Filtermate). The plates were washed 3 times by aspirating 30 ml PBS through the plates. Plates were dried in 55° C. oven for 60 min, scintillation fluid was added, and the radioactivity was counted on a Topcount (Packard).

The chains behind the UniProt entries cited, without tags or fusion partners.
UniProt O43614, whole entry: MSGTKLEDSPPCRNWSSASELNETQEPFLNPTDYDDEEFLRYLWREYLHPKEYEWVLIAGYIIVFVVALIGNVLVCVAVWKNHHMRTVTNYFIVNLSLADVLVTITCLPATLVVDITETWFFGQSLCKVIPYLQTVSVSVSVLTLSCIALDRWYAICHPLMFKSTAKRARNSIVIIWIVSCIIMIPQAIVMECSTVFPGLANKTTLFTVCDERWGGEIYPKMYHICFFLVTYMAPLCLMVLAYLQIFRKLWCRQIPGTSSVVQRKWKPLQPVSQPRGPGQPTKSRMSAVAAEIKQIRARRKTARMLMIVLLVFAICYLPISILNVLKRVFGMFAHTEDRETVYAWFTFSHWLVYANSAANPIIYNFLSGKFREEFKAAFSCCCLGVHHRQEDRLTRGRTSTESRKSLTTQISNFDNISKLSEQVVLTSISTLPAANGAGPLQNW

Another experiment deals with rat orexin 1 receptor (Rattus norvegicus, UniProt P56718). The experiment is described as follows: Rat orexin 1 receptor radioligand binding. Conditions: HEK293 cells stably expressing rat orexin 1 receptor; apparent Ki; read-out: rOX1 Ki. The method, then: After centrifugation (2K×G, 5 min at 4° C.), the supernatant was aspirated and the pellets frozen and stored at −80° C. […] Each cell pellet from a 15 cm plate was resuspended in 10 mL, stored on ice, and homogenized for 45 sec prior to addition to the reactions. Competition binding experiments in 96 well polypropylene plates were performed using [^3H]-(1-(5-(2-fluoro-phenyl)-2-methyl-thiazol-4-yl)-1-((S)-2-(5-phenyl-(1,3,4)oxadiazol-2-ylmethyl)-pyrrolidin-1-yl)-methanone) (Moraveck Corporation, specific activity=35.3 Ci/mmol), diluted to a 10 nM concentration in PBS (4 nM final). […] The final concentration of DMSO in the reactions is equal to or less than 0.1%. Total and nonspecific binding was determined in the absence and presence of 10 μM almorexant. The total volume of each reaction is 200 μL (20 μL of diluted compounds, 80 μL of [3H]-(1-(5-(2-fluoro-phenyl)-2-methyl-thiazol-4-yl)-1-((S)-2-(5-phenyl-(1,3,4)oxadiazol-2-ylmethyl)-pyrrolidin-1-yl)-methanone) diluted in PBS and 100 μL of the cell suspension). […] The plates were washed 3 times by aspirating 30 ml PBS through the plates. Plates were dried in 55° C. oven for 60 min, scintillation fluid was added, and the radioactivity was counted on a Topcount (Packard).

For another experiment, the target named is human orexin 2 receptor (Homo sapiens (Human), UniProt O43614). Briefly: Human orexin 2 receptor radioligand binding ([3H]-EMPA). Conditions: HEK293 stably expressing human orexin 2 receptor, apparent Ki, read-out: hOX2 Ki. How it is done: After centrifugation (2K×G, 5 min at 4° C.), the supernatant was aspirated and the pellets frozen and stored at −80° C. […] Each cell pellet from a 15 cm plate was resuspended in 10 mL, stored on ice, and homogenized for 45 sec just prior to addition to the reactions. Competition binding experiments in 96 well polypropylene plates were performed using [^3H]-EMPA (Moraveck Corporation, specific activity=29.6 Ci/mmol), diluted to a 5 nM concentration in PBS (2 nM final concentration). […] The final concentration of DMSO in the reactions is equal to or less than 0.1%. Total and nonspecific binding was determined in the absence and presence of […]. The total volume of each reaction is 200 μL (20 μL of diluted compounds, 80 μL of [^3H]-EMPA diluted in PBS and 100 μL of the cell suspension).
The plates were washed 3 times by aspirating 30 ml PBS through the plates. Plates were dried in 55° C. oven for 60 min, scintillation fluid was added, and the radioactivity was counted on a Topcount (Packard).

Molecules are shown by their SMILES. Where a name gives a salt, the structure may show the parent alone.

In the case of `C[C@H]1[C@H](Nc2ccc(Cl)cn2)CCCN1C(=O)c1ccccc1-n1nccn1` (racemic) [Example 32, (±)-trans-(2-(2H-1,2,3-triazol-2-yl)phenyl)(3-((5-chloropyridin-2-yl)amino)-2-methylpiperidin-1-yl)methanone], the Ki at human orexin 1 receptor came to 12 nM.

`CCOc1ccccc1C(=O)N1CCC[C@@H](Nc2nc3cc(Cl)ccc3o2)[C@H]1C` (racemic) [Example 61, (±)-cis-(3-((5-chlorobenzo[d]oxazol-2-yl)amino)-2-methylpiperidin-1-yl)(2-ethoxyphenyl)methanone]: at rat orexin 1 receptor, the Ki is 1100 nM.

Turning to `CCOc1ccccc1C(=O)N1CCC[C@@H](Nc2nc3cc(Cl)ccc3o2)[C@@H]1C` (racemic) [Example 46, (±)-trans-(3-((5-chlorobenzo[d]oxazol-2-yl)amino)-2-methylpiperidin-1-yl)(2-ethoxyphenyl)methanone], the Ki stood at 153 nM on human orexin 1 receptor and 185 nM on rat orexin 1 receptor.

`Cc1ccc(-c2ncccn2)c(C(=O)N2CCC[C@@H](Nc3ccc(C(F)(F)F)cn3)[C@@H]2C)n1` (racemic) [Example 23, (±)-trans-(2-methyl-3-((5-(trifluoromethyl)pyridin-2-yl)amino)piperidin-1-yl)(6-methyl-3-(pyrimidin-2-yl)pyridin-2-yl)methanone hydrochloride]: at rat orexin 1 receptor, the Ki was 36 nM.

Regarding `C[C@H]1[C@H](Nc2ncc(Cl)cn2)CCCN1C(=O)c1ccccc1-n1nccn1` (racemic) [Example 30, (±)-trans-(2-(2H-1,2,3-triazol-2-yl)phenyl)(3-((5-chloropyrimidin-2-yl)amino)-2-methylpiperidin-1-yl)methanone], the Ki at human orexin 2 receptor came to 656 nM.

In the case of `C[C@H]1[C@H](Nc2ccc(Cl)cn2)CCCN1C(=O)c1ccccc1-n1nccn1` [Example 100, (2-(2H-1,2,3-triazol-2-yl)phenyl)((2S,3R)-3-((5-chloropyridin-2-yl)amino)-2-methylpiperidin-1-yl)methanone], on human orexin 1 receptor, the Ki was 12 nM.

Consider `Cc1ccc(-c2ncccn2)c(C(=O)N2CCC[C@@H](Nc3cc(C)nc(C(F)(F)F)n3)[C@@H]2C)c1` (racemic) [Example 7, (±)-trans-(5-methyl-2-(pyrimidin-2-yl)phenyl)(2-methyl-3-((6-methyl-2-(trifluoromethyl)pyrimidin-4-yl)amino)piperidin-1-yl)methanone], for which, at human orexin 1 receptor, the Ki came out at 126 nM.

With `C[C@H]1[C@H](Nc2ccc(C(F)(F)F)cn2)CCCN1C(=O)c1cc(F)ccc1-n1nccn1` (racemic) [Example 24, (±)-trans-(5-fluoro-2-(2H-1,2,3-triazol-2-yl)phenyl)(2-methyl-3-((5-(trifluoromethyl)pyridin-2-yl)amino)piperidin-1-yl)methanone], the Ki was found to be 16 nM at human orexin 1 receptor and 8 nM at rat orexin 1 receptor.

With `C[C@H]1[C@H](Nc2ccc(Br)cn2)CCCN1C(=O)c1ccccc1-n1nccn1` (racemic) [Example 42, (±)-trans-(2-(2H-1,2,3-triazol-2-yl)phenyl)(3-((5-bromopyridin-2-yl)amino)-2-methylpiperidin-1-yl)methanone], the Ki was 10 nM at human orexin 1 receptor and 11 nM at rat orexin 1 receptor.

`C[C@H]1[C@H](Nc2ccc(C(F)(F)F)cn2)CCCN1C(=O)c1ncccc1-n1nccn1` (racemic) [Example 21, (±)-trans-(3-(2H-1,2,3-triazol-2-yl)pyridin-2-yl)(2-methyl-3-((5-(trifluoromethyl)pyridin-2-yl)amino)piperidin-1-yl)methanone]: the Ki on human orexin 1 receptor came out at 25 nM; on rat orexin 1 receptor it was 19 nM.

Take `C[C@@H]1[C@H](Nc2cnc3ccccc3n2)CCCN1C(=O)c1ccccc1-n1nccn1` (racemic) [Example 63, (±)-cis-(2-(2H-1,2,3-triazol-2-yl)phenyl)(2-methyl-3-(quinoxalin-2-ylamino)piperidin-1-yl)methanone]: the Ki on rat orexin 1 receptor was found to be 3300 nM.

For the compound `Cc1ccc(N[C@@H]2CCCN(C(=O)c3ccccc3-n3nccn3)[C@H]2C)nc1` (racemic) [Example 37, (±)-trans-(2-(2H-1,2,3-triazol-2-yl)phenyl)(2-methyl-3-((5-methylpyridin-2-yl)amino)piperidin-1-yl)methanone], the Ki on human orexin 2 receptor came to 824 nM.

Take `C[C@@H]1[C@H](Nc2ccc(Br)cn2)CCCN1C(=O)c1ccccc1-n1nccn1` (racemic) [Example 57, (±)-cis-(2-(2H-1,2,3-triazol-2-yl)phenyl)(3-((5-bromopyridin-2-yl)amino)-2-methylpiperidin-1-yl)methanone]: at rat orexin 1 receptor, the Ki stood at 720 nM.

For the compound `CCOc1ccc(C)nc1C(=O)N1CCC[C@@H](Nc2ccc(C(F)(F)F)cn2)[C@@H]1C` (racemic) [Example 16, (±)-trans-(3-ethoxy-6-methylpyridin-2-yl)(2-methyl-3-((5-(trifluoromethyl)pyridin-2-yl)amino)piperidin-1-yl)methanone], the results for the Ki at human orexin 1 receptor and at rat orexin 1 receptor were 38 nM and 35 nM, respectively.

`C[C@H]1[C@H](Nc2cnc3ccccc3n2)CCCN1C(=O)c1ccccc1-n1nccn1` (racemic) [Example 48, (±)-trans-(2-(2H-1,2,3-triazol-2-yl)phenyl)(2-methyl-3-(quinoxalin-2-ylamino)piperidin-1-yl)methanone]: the results for the Ki on human orexin 1 receptor and at rat orexin 1 receptor were 11 nM and 14 nM, respectively.

Consider `Cc1cnc(N[C@@H]2CCCN(C(=O)c3ccccc3-n3nccn3)[C@H]2C)nc1` (racemic) [Example 31, (±)-trans-(2-(2H-1,2,3-triazol-2-yl)phenyl)(2-methyl-3-((5-methylpyrimidin-2-yl)amino)piperidin-1-yl)methanone], for which the Ki on human orexin 1 receptor was found to be 120 nM; at rat orexin 1 receptor, 131 nM.

On to `C[C@H]1[C@H](Nc2ncc3ccccc3n2)CCCN1C(=O)c1ccccc1-n1nccn1` (racemic) [Example 39, (±)-trans-(2-(2H-1,2,3-triazol-2-yl)phenyl)(2-methyl-3-(quinazolin-2-ylamino)piperidin-1-yl)methanone], for which the Ki at human orexin 1 receptor was determined as 12 nM; at rat orexin 1 receptor, 32 nM.

(Values after patent US9115117B2, “Substituted piperidine compounds and their use as orexin receptor modulators” (JANSSEN PHARMACEUTICA NV, priority 2013, dated 2015).)
